Results on 2 compounds are retold here after US8633225B2, “Piperidinium compounds and cosmetic compositions containing them” (Beiersdorf AG, priority 2006, dated 2014).

The nature of data set [1]: toxicological harmlessness / tolerance; statement only, no test described. To be noted: qualitative statement.
Data set [2] can be described thus: inhibiting or reducing perspiration (antihidrotic effect); statement only, no test described. To be noted: qualitative statement.

As to `C[N+]1(C)CCC(OC(=O)C(O)(c2ccccc2)C2CCCC2)CC1` (stereo not drawn), the toxicological assessment entry in data set [1] is “toxicologically harmless”.

In the case of `C[N+]1(C)CCC(OC(=O)C(O)(c2ccccc2)C2CCCCC2)CC1` (stereo not drawn), the “efficacy in inhibiting perspiration” value in data set [2] was “effectiveness in reducing or even inhibiting perspiration”. Also, the toxicological assessment result in data set [1] is on record as “toxicologically harmless”.
